Values quoted from earlier work in patent publication US9193755B1, “TFEB variants and uses thereof” (Fondazione Telethon, priority 2011, dated 2015).

Biological target: mTOR (Homo sapiens, UniProt P42345)
Conditions: recent data (41, 47, 48); cited from earlier work

CCC(=O)N1CCN(c2ccc(-n3c(=O)ccc4cnc5ccc(-c6cnc7ccccc7c6)cc5c43)cc2C(F)(F)F)CC1 [Torin 1]
mTOR inhibition: completely inhibiting mTOR activity
